The values that follow are results of earlier work, collected in patent publication US20240173460A1, “STORAGE SOLUTIONS FOR MAINTAINING OF AXONAL VIABILITY” (Board of Regents, The University of Texas System, priority 2022, published 2024).

Consider sodium acetate, anhydrous, for which the solubility in water entry was “soluble in water”.
